Assay outcomes deposited in PubChem by National Center for Advancing Translational Sciences (NCATS).
A549 tox-1: A549 cytotoxicity, counter-screen for Nrf2 inhibitors. 0.16% of 390,000 active. Potency, µM (highest dose often 46 µM), for the others: at the highest dose activity change, negative = cytotoxicity, actives largely listed as inhibitors. A549 ARE-Fluc cells, CellTiter-Fluor viability, 18-24 h; also: potency is read from the fitted curve at half-maximal effect; % is scaled to controls: 0 for no effect and ±100 for the full control effect
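A549 ARE-Fluc cells in 5% FBS OPTI-MEM, 5000 cells/well, rested 2 h then exposed to compounds in concentration-response for 18-24 h at 37 °C. Viability by CellTiter-Fluor fluorescence (Ex 405/Em 525) after 30 min; luciferase luminescence (BugLite, 15 min, RT) read afterwards.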
miR-21 reporter: raises the signal of a miR-21 reporter; HeLa miR-21 FLuc reporter, luciferase, 48 h; Potency, µM (highest dose often 38.3 µM), inactives show at the highest dose reporter change, positive = more light; 340,000 tested, under 10 active; active = well fitted rising curve with a large enough effect; inconclusive = small, poorly fitted or top-dose-only effect; inactive = no such curve, though single readings can be large or run the other way;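 note: % of control where 0% means no effect; miR-21 action dims this reporter so a rising signal means less miR-21 action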
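HeLa cells endogenously expressing miR-21, stably carrying CMV-driven firefly luciferase with a downstream miR-21 binding site, 2000 cells/well. Titrations up to approximately 40 uM, 48 hours; luciferase luminescence read.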
Mito fusion act: blocks mitochondrial division or promotes mitochondrial fusion; S. cerevisiae fusion-defective mutant growth rescue, CellTiterGlo 48 h; Potency, µM (titrated, usually from 46.1 µM), inactives show at the highest dose growth rescue (activation), hits mostly activators; AID 485298; 0.23% of 320,000 active; also: potency is read from the fitted curve at half-maximal effect; % of control where 0% means no effect; nearly all actives have a fitted effect of over 45% in size
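Yeast fusion mutant, YPEG (non-fermentable carbon), compound, 48 h at 37C non-permissive; CellTiterGlo added, 10 min RT, luminescence read. Rescued growth = division inhibition.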
Nrf2 block: blocks Nrf2 signaling; A549 ARE-Fluc reporter, luciferase luminescence, 18-24 h; Potency, µM (titrated, usually from 46 µM), without a hit: top-dose activity change, negative = inhibition, usual class: inhibitors; 2.1% of 360,000 active; also: potency is read from the fitted curve at half-maximal effect; % is scaled to controls: 0 for no effect and ±100 for the full control effect; nearly all actives have a fitted effect of over 60% in size
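Quantitative HTS in A549 cells stably bearing an antioxidant response element-firefly luciferase construct. Inhibition of Nrf2-driven transcription was scored by luminescence after 18-24 h of compound exposure at 37 °C.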
Nrf2 ARE act: Nrf2 pathway activation; Potency, µM (highest dose often 46.1 µM), without a hit: top-dose activation, hits mostly activators; AREc32 ARE-luciferase reporter (MCF7-derived line), luminescence, 24 h; 0.31% of 410,000 active; also: potency is read from the fitted curve at half-maximal effect; % of control where 0% means no effect; nearly all actives have a fitted effect of over 65% in size
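AREc32 cells carrying an ARE-driven firefly luciferase, 1000 cells/well in OPTI-MEM with 5% FBS, dosed after overnight attachment and incubated 24 hr at 37 deg C. Steady-Glo luminescence read after 30 min at RT.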
FLuc counter 3: firefly luciferase inhibition, Nrf2 hit validation | shares compounds with Nrf2 block | purified firefly luciferase, luminescence inhibition | Potency, µM (highest dose often 57.5 µM), for inactives: at the highest dose activity change, negative = inhibition, most hits filed as inhibitors | 4% of 1,400 active | AID 720522; also: potency is read from the fitted curve at half-maximal effect; % is scaled to controls: 0 for no effect and ±100 for the full control effect; nearly all actives have a fitted effect of over 65% in size
A549 tox-2: A549 cytotoxicity, Nrf2 inhibitor counterscreen; shares compounds with Nrf2 block; A549 ARE-Fluc cells, cytotoxicity counterscreen; Potency, µM (titrated, usually from 46.1 µM), for the others: top-dose activity change, negative = cytotoxicity, most hits filed as inhibitors; 2% of 1,400 active;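 also: potency is read from the fitted curve at half-maximal effect; cells exposed to compounds for 18 to 24 hours; % is scaled to controls: 0 for no effect and ±100 for the full control effect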
Nrf2 ARE inh: confirmation of Nrf2 inhibitors in A549 ARE reporter cells; shares compounds with Nrf2 block; A549 ARE-firefly luciferase reporter, luminescence; Potency, µM (titrated, usually from 46.1 µM), inactives show at the top dose activity change, negative = inhibition, hits mostly inhibitors; 74% of 1,400 active; also: potency is read from the fitted curve at half-maximal effect; % is scaled to controls: 0 for no effect and ±100 for the full control effect; nearly all actives have a fitted effect of over 65% in size
The depositor's hits bear a star; u = inconclusive; x = no result given. Shown are actives, neighbours in structure and some others; about 2.3% of the full set was active somewhere. Unless noted, calls follow the shape of the dose curve; as a rule, active = well fitted curve in the direction sought with a large enough effect; inconclusive = small, poorly fitted or top-dose-only effect, or another doubt; inactive = no such curve, though single readings can be large; an effect the other way counts as inactive or inconclusive.

molecule,Nrf2 ARE inh,miR-21 reporter,Mito fusion act,FLuc counter 3,Nrf2 block,Nrf2 ARE act,A549 tox-1,A549 tox-2
O=C(Cn1nc(-c2ccc(Cl)cc2)ccc1=O)NCCc1ccccc1,x,1%,x,x,x,0%,-1%,x
Cn1cccc1C(=O)NC(=O)COC(=O)CNC(=O)c1ccc(Cl)cc1Cl,7.3µM*,1%,-3%,u,2.6µM*,-1%,2%,3%
COc1ccc(N2CCN(S(=O)(=O)c3ccc4c(c3)CC(C)N4C(C)=O)CC2)cc1 (stereo unspecified),5.8µM*,15%,x,4%,9.2µM*,-1%,-9%,-4%
COc1ccc(NS(=O)(=O)c2ccc3c(c2)CC(C)N3C(=O)C2CCC2)cc1OC (stereo unspecified),x,21%,x,x,x,-1%,u,x
CC(=O)N1c2ccc(S(=O)(=O)N3CCN(c4cccc(Cl)c4)CC3)cc2CC1C (stereo unspecified),x,2%,x,x,u,-1%,21%,x
COc1cc(NS(=O)(=O)c2ccc3c(c2)CC(C)N3C(=O)C2CCC2)cc(OC)c1OC (stereo unspecified),2.6µM*,18%,x,-2%,6.5µM*,x,-26%,-16%
COc1cc(Cl)c(NS(=O)(=O)c2ccc3c(c2)CC(C)N3C(=O)C2CCC2)c(OC)c1 (stereo unspecified),8.2µM*,u,x,0%,9.2µM*,-1%,-22%,-11%
CC1Cc2cc(S(=O)(=O)NCc3ccccc3)ccc2N1C(=O)C1CC1 (stereo unspecified),x,-7%,0%,x,u,0%,2%,x
CC1Cc2cc(S(=O)(=O)NCc3ccccc3)ccc2N1C(=O)C1CCC1 (stereo unspecified),u,0%,0%,2%,1.6µM*,0%,-3%,0%
CCN(CC)S(=O)(=O)c1ccc(NC(=O)c2ccc3c(=O)n4c(nc3c2)CCCCC4)cc1,8.2µM*,u,x,-9%,9.2µM*,0%,u,-15%
CCc1ccc(NC(=O)c2ccc3c(=O)n4c(nc3c2)CCCCC4)cc1,x,19%,5%,x,u,0%,-19%,x
Cc1ccc(-n2c(-c3ccc(Br)cc3)c[n+]3c2CCc2ccc4cccnc4c2-3)cc1,5.8µM*,u,-23%,-10%,2.9µM*,6%,-22%,u
CCCc1ccc(OCC(=O)Nc2sc(C(=O)OCC)c(C)c2C(=O)OCC)cc1,x,-3%,x,x,u,0%,-7%,x
Cc1cc(Cl)c(S(=O)(=O)NC2CCCC2)cc1OCC(=O)NC1CCCCC1,7.3µM*,25%,-1%,3%,6.5µM*,0%,-30%,-13%
Cc1cc(Cl)c(S(=O)(=O)N2CCSCC2)cc1OCC(=O)NC1CCCCC1,4.6µM*,15%,-8%,-1%,6.5µM*,2%,u,-24%
Cc1cc(Cl)c(S(N)(=O)=O)cc1OCC(=O)NC1CCCCC1,x,-4%,0%,x,-4%,0%,3%,x
CCOc1ccc(NC(=O)CSC2=Nc3ccccc3C3=NC(CCC(=O)NCc4cccs4)C(=O)N23)cc1 (stereo unspecified),x,-8%,x,x,x,0%,1%,x
Cc1ccc(C)c(OCCn2cc(C(=O)c3ccco3)c3ccccc32)c1,x,0%,x,x,6%,3%,5%,x
Cc1ccccc1OCCn1c(C)nc2ccccc21,u,12%,-3%,-15%,8.2µM*,-1%,3%,2%
CCOC(=O)c1c(NC(=O)CC2SC(N)=NC2=O)sc2c1CCCC2 (stereo unspecified),u,-2%,-1%,-1%,1.6µM*,3%,-24%,-1%

Reprinted at random: four compounds from above
molecule,Nrf2 ARE inh,miR-21 reporter,Mito fusion act,FLuc counter 3,Nrf2 block,Nrf2 ARE act,A549 tox-1,A549 tox-2
CCOC(=O)c1c(NC(=O)CC2SC(N)=NC2=O)sc2c1CCCC2 (stereo unspecified),u,-2%,-1%,-1%,1.6µM*,3%,-24%,-1%
CCOc1ccc(NC(=O)CSC2=Nc3ccccc3C3=NC(CCC(=O)NCc4cccs4)C(=O)N23)cc1 (stereo unspecified),x,-8%,x,x,x,0%,1%,x
Cc1ccc(-n2c(-c3ccc(Br)cc3)c[n+]3c2CCc2ccc4cccnc4c2-3)cc1,5.8µM*,u,-23%,-10%,2.9µM*,6%,-22%,u
Cc1cc(Cl)c(S(=O)(=O)N2CCSCC2)cc1OCC(=O)NC1CCCCC1,4.6µM*,15%,-8%,-1%,6.5µM*,2%,u,-24%

(next part)
molecule,Nrf2 ARE inh,miR-21 reporter,Mito fusion act,FLuc counter 3,Nrf2 block,Nrf2 ARE act,A549 tox-1,A549 tox-2
CCOC(=O)c1c(NC(=O)COC)sc2c1CCCC2,x,-7%,19%,x,1%,-1%,14%,x
Cc1ccccc1-c1noc(-c2ccc(NCc3cccnc3)c([N+](=O)[O-])c2)n1,x,-9%,x,x,u,7%,18%,x
CCCC1N=C2c3ccccc3N=C(SCC(=O)NCCc3ccc(Cl)cc3)N2C1=O (stereo unspecified),x,-2%,x,x,x,7%,-7%,x
COc1cccc(-c2nnc3n2N=C(C(C)(C)C)CS3)c1,x,u,13%,-2%,7.3µM*,-1%,-27%,u
N#C/C(=N\Nc1cccc(C(F)(F)F)c1)C(=O)c1ccsc1,x,20%,u,21µM*,u,15%,-18%,u
Cc1nccc(-c2cccc(N/N=C(\C#N)C(=O)c3ccccc3)c2)n1,x,-3%,8%,x,u,0%,-17%,x
CSC(=S)NN=C(C)c1cccc(C)n1,x,x,x,u,4.1µM*,26%,u,-26%
N=c1ccn(Cc2c(Cl)cccc2Cl)cc1,4.1µM*,u,1%,2%,5.2µM*,-1%,-5%,-3%
N=c1ccn(Cc2ccccc2Cl)cc1,x,28%,-1%,x,x,0%,u,x
O=C(CSc1nc2ccccc2nc1Cc1ccc(Cl)cc1)Nc1ccc2c(c1)OCO2,x,5%,x,x,x,7%,5%,x
CC(C)(C)c1ccc(S(=O)(=O)Nc2ccc(Cc3ccncc3)cc2)cc1,0.021µM*,-2%,4%,-3%,9.2µM*,5%,u,u
CC(=O)Nc1ccc(S(=O)(=O)Nc2ccc(Cc3ccncc3)cc2)cc1,x,15%,1%,x,u,0%,1%,x
Cc1cccc(C(=O)NC2=NC(c3ccc(Cl)cc3)CC(=O)N2)c1 (stereo unspecified),x,2%,x,x,-27%,27%,0%,x
CC(CNC(=O)c1cc2cc(S(=O)(=O)N3CCCCC3)ccc2n1C)c1ccccc1 (stereo unspecified),x,-9%,x,x,x,0%,1%,x
CCOC(=O)N1CCc2c(sc(NC(=O)c3ccc(S(=O)(=O)N4CCCC4)cc3)c2C#N)C1,7.3µM*,-7%,2%,-28%,7.3µM*,1%,-28%,-29%
O=NNc1nc2ccccc2n1Cc1ccccc1,6.5µM*,u,-5%,-20%,6.5µM*,0%,u,-24%
CC(=O)Nc1nc2ccccc2n1Cc1ccccc1,x,-12%,-9%,x,1%,0%,-13%,x
O=C(O)c1cccc(-n2cccc2/C=C2\NC(=O)N(Cc3ccc(F)cc3)C2=O)c1,x,-9%,-1%,x,0%,2%,-7%,x
Cc1ccc(CN2C(=O)N/C(=C\c3cccn3-c3cccc(C(=O)O)c3)C2=O)cc1,-8%,-16%,0%,-23%,2.6µM*,0%,u,-9%
O=C(NCCc1ccccc1)C(=O)NCC(c1cccnc1)N1CCN(c2ccccc2)CC1 (stereo unspecified),x,3%,x,x,-12%,3%,-11%,x
Cc1cc(=O)[nH]c(N/N=C/c2ccccc2C(F)(F)F)n1,x,-2%,3%,x,13%,3%,-2%,x
Cc1cc(=O)[nH]c(N/N=C/c2cc(C)n(CC(F)(F)F)c2C)n1,1.5µM*,13%,-1%,-7%,4.1µM*,1%,-12%,-20%
